Screening results deposited in PubChem by National Center for Advancing Translational Sciences (NCATS).
12-LOX inh: Primary qHTS assay for inhibitors of human arachidonate 12S-lipoxygenase (ALOX12): Round 2; Polyunsaturated fatty acid lipoxygenase ALOX12 (Homo sapiens), P18054; purified 12hLO, xylenol orange hydroperoxide absorbance; Potency, µM (titrated, usually from 108 µM), for inactives: top-dose activity change, negative = inhibition, actives largely listed as inhibitors; 580,000 compounds, 1.1% hits; note: % is set by controls: 0 for no effect and ±100 for the full control effect
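Purified human 12hLO (150 nM final) in 25 mM Hepes, 0.01% Triton X-100, pH 7.0 was preincubated 15 min at room temperature with compound. Then 40 uM arachidonic acid was added, 30 min. Hydroperoxide was read by Fe-XO absorbance ratio 573/405 nm.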
Rango release inh: qHTS Assay for Inhibitors of RanGTP induced Rango (Ran-regulated importin-beta cargo) - Importin beta complex dissociation; Snurportin-1 (Homo sapiens) + GTP-binding nuclear protein Ran (Homo sapiens) + Importin …; Biochemical FRET Rango-importin beta, RanGTP-induced dissociation; Potency, µM (doses to about 46.1 µM), for the others: at the highest dose activity change, negative = inhibition; 340,000 compounds, 0.071% hits; AID 540253, 2011; calls by dose curve; note: % of control where 0% means no effect; nearly all actives have a fitted effect of over 45% in size
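Quantitative HTS using a FRET biosensor: 0.1 uM Rango, 0.25 uM importin beta, 0.6 uM Ran, 2 mM GTP, 0.2 uM RCC1 final, PBS with DTT, Tween-20 and BSA. Post-read taken 45 min after Ran addition.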
ClpP mod: qHTS Assay for Activators of ClpP; ATP-dependent Clp protease proteolytic subunit (Bacillus subtilis (strain 168)), P80244; purified B. subtilis ClpP, FRET peptide cleavage, 20 min; Potency, µM (highest dose often 57.5 µM), without a hit: at the highest dose activity change, negative = active; 340,000 compounds, 1.9% hits; AID 651965, 2013; active = well fitted falling curve with a large enough effect; inconclusive = small, poorly fitted or top-dose-only effect; inactive = no such curve, though single readings can be large or run the other way; note: the source files actives as falling curves though it sought activators and does not explain the sign; nearly all actives have a fitted effect of over 65% in size
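Purified B. subtilis ClpP, 10 microg/mL final in Tris/HCl pH8 with KCl, BSA, glycerol and Tween-20, cleaved an Abz/nitrotyrosine-quenched decapeptide. Fluorescence (ex 320, em 430) was read at 0 and 20 min at room temperature. Delta was normalized to 5.8 microM ADEP and DMSO/no-enzyme controls.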
PTAP TSG101 blk: qHTS Assay for Iinhibitors of HIV-1 Budding by Blocking the Interaction of PTAP/TSG101; Tumor susceptibility gene 101 protein (Homo sapiens), Q99816; Fluorescence polarization, FITC-PTAP peptide / Tsg101 binding; Potency, µM (series often up to 115 µM), for the others: at the highest dose activity change, negative = inhibition, hits mostly inhibitors; 340,000 tested, under 10 active; AID 493005, 2010; active = well fitted inhibition curve with a large enough effect in the main read-out, with a control signal flat, not every such curve was filed as active; inconclusive = small, poorly fitted or top-dose-only effect, or effect the other way, or a change in a side signal; inactive = no such curve, though single readings can be large or run the other way; note: % of control where 0% means no effect
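Tsg101 binding domain (10 uM final) was mixed with compound and a FITC-labeled PTAP peptide (50 nM final) in HEPES pH 7.5 buffer with NaCl, Tween 20, EDTA and TCEP; fluorescence polarization was read after 20 min at r.t.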
TDP1 block: qHTS Assay for Inhibitors of Tyrosyl-DNA Phosphodiesterase (TDP1) | 350,000 compounds, 0.28% hits | Potency, µM (highest dose often 130 µM), without a hit: top-dose activity change, negative = inhibition, usual class: inhibitors | recombinant TDP1, AlphaScreen DNA substrate cleavage | Tyrosyl-DNA phosphodiesterase 1 (Homo sapiens), Q9NUW8; note: % is set by controls: 0 for no effect and ±100 for the full control effect; nearly all actives have a fitted effect of over 40% in size
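Enzyme-compound mixtures sat 15 min at room temperature, followed by a 5 min reaction with 15 nM final substrate and 10 min with AlphaScreen beads. Recombinant human Tdp1 was used at 1 nM final.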
Rango-impB inh: qHTS Assay for Inhibitors of Rango (Ran-regulated importin-beta cargo) - Importin beta complex formation | Importin subunit beta-1 (Homo sapiens), Q14974 | Rango CFP/YFP FRET sensor + importin beta, 45 min | Potency, µM (highest dose often 92.2 µM), without a hit: at the highest dose inhibition of complex formation | 340,000 compounds, 0.031% hits | AID 540263, 2011; calls by dose curve;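 note: 0% = DMSO wells and 100% = buffer wells lacking importin beta; nearly all actives have a fitted effect of over 15% in size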
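Inhibition scored from the CFP 486 nm/YFP 530 nm FRET ratio 45 min after adding 0.125 microM importin beta to 50 nM Rango biosensor preincubated 5 min with compound (room temperature, PBS with DTT, Tween-20, BSA). No-importin wells as positive control.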
An asterisk follows results filed as active; i = inactive; ? = inconclusive; / = no result given; [ ] = dose if it differs, or a comment. An excerpt weighted towards active compounds, which were near 2.4% of everything screened. Unless noted, calls come from the whole dose curve; as a rule, active = well fitted curve in the direction sought with a large enough effect; inconclusive = small, poorly fitted or top-dose-only effect, or another doubt; inactive = no such curve, though single readings can be large; an effect the other way counts as inactive or inconclusive. Potency is the fitted concentration of half-maximal effect.

Chains of the proteins cited; added tags and fusions are not shown.
ATP-dependent Clp protease proteolytic subunit (Bacillus subtilis (strain 168)), P80244, UniProt P80244, whole entry, looked up: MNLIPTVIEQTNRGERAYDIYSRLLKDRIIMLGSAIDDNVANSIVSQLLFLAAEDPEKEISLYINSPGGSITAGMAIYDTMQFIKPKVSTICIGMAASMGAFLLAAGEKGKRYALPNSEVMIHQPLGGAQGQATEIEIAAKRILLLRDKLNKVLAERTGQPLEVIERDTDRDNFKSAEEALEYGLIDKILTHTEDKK
Tumor susceptibility gene 101 protein (Homo sapiens), Q99816, UniProt Q99816, whole entry, looked up: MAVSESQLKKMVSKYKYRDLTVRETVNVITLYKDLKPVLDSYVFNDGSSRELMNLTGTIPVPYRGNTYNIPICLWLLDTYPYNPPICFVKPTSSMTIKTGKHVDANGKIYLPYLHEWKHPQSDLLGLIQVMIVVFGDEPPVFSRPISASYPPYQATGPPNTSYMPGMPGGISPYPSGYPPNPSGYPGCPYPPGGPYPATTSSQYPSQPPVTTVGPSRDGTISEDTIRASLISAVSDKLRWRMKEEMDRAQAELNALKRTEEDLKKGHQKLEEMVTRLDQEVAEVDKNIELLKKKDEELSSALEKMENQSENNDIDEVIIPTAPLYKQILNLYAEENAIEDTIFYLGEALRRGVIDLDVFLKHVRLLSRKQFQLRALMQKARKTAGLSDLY
Tyrosyl-DNA phosphodiesterase 1 (Homo sapiens), Q9NUW8, UniProt Q9NUW8, whole entry, looked up: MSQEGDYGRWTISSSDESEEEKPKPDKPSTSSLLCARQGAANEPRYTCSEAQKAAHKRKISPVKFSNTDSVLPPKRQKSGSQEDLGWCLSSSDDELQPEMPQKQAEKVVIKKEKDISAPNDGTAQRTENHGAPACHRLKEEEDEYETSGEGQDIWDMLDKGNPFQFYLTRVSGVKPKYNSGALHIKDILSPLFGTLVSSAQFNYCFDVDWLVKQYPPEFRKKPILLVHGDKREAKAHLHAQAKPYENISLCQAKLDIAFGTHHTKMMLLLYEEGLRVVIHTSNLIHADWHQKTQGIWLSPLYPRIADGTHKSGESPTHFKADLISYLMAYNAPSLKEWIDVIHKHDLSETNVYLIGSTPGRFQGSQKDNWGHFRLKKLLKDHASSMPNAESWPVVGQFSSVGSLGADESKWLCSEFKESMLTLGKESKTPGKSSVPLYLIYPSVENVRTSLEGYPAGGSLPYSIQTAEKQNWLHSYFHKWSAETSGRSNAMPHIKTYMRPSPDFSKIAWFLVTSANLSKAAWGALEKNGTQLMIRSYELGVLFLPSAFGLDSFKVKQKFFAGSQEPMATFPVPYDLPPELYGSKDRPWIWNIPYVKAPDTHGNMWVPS
Importin subunit beta-1 (Homo sapiens), Q14974, UniProt Q14974, whole entry, looked up: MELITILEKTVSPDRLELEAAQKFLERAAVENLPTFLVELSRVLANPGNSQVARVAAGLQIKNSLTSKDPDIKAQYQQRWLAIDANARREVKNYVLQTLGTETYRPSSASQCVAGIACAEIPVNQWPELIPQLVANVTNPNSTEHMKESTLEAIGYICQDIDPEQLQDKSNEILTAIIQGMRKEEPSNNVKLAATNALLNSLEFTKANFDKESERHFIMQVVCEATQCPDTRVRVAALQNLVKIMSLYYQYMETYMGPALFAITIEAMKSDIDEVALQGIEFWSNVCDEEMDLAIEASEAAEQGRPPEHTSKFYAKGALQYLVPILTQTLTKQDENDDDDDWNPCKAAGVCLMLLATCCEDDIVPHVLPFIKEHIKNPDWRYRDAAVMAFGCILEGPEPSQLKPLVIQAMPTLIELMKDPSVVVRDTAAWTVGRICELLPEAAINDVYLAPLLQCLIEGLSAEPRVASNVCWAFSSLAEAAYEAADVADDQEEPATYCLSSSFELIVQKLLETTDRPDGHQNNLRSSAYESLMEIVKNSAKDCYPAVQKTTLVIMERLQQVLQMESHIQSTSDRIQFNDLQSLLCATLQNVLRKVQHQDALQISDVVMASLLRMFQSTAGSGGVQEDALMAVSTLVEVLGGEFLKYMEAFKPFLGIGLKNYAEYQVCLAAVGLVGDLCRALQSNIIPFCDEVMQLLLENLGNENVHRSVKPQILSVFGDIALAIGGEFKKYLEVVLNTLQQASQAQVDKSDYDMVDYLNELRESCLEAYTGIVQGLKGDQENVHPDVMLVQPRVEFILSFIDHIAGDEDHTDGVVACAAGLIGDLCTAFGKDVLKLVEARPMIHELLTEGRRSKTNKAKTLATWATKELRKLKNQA

Short keys: A = 12-LOX inh; B = Rango release inh; C = ClpP mod; D = PTAP TSG101 blk; E = TDP1 block; F = Rango-impB inh
COc1ccc2cc(C3CC(c4ccco4)=NN3S(C)(=O)=O)c(Cl)nc2c1 (stereo not drawn)
  A: 35µM*; B: ?; C: /; D: -4%; E: 8%; F: ?
CN1C2CCC1/C(=C\c1ccc(F)cc1)C(=O)/C2=C/c1ccc(F)cc1
  A: -13%; B: 2%; C: -3%; D: -1%; E: 0%; F: 4%
C=CC(=O)N1C/C(=C/c2ccc(F)cc2)C(=O)/C(=C\c2ccc(F)cc2)C1
  A: 7.9µM*; B: -19%; C: -1%; D: 1%; E: /; F: -4%
O=C(NCc1ccccc1F)c1ccccc1-c1ccccc1
  A: -4%; B: /; C: /; D: /; E: /; F: /
O=C(O)c1ccccc1-c1ccccc1C(=O)NCc1ccccc1F
  A: 18%; B: 27%; C: 8.9µM*; D: -1%; E: /; F: 3%
COc1cccc(CC(NC(C)=O)C(=O)NC2CCN(c3nc(C)cc(C)c3C#N)CC2)c1OC (stereo not drawn)
  A: 4%; B: 1%; C: 28µM*; D: -4%; E: 7%; F: ?
COc1cc(CC(NC(C)=O)C(=O)NC2CCN(c3nc(C)cc(C)c3C#N)CC2)cc(OC)c1 (stereo not drawn)
  A: -11%; B: 1%; C: ?; D: -2%; E: -1%; F: 5%
CCCS(=O)(=O)Nc1ccc(N2CCCCC2)c(S(=O)(=O)Nc2ccccc2OC)c1
  A: 32µM*; B: -27%; C: 1%; D: 0%; E: -7%; F: -8%
Cc1cc(C)c(S(=O)(=O)Nc2cccc3nsnc23)c(C)c1
  A: ?; B: 1%; C: -1%; D: 0%; E: 1%; F: 10%
O=C(Nc1ccccc1)Nc1cccc2nsnc12
  A: 40µM*; B: ?; C: ?; D: -2%; E: 8%; F: ?
O=S(=O)(Nc1cccc2nsnc12)c1ccccc1
  A: 1%; B: 25%; C: -2%; D: -1%; E: 3%; F: 29µM*
O=C(Nc1cccc2nsnc12)c1cccs1
  A: -24%; B: ?; C: ?; D: -5%; E: 2%; F: ?
CSc1ccccc1NC(=O)c1ccc2ccccc2c1
  A: -16%; B: /; C: /; D: /; E: /; F: /
CCOc1ccccc1C(=O)N/N=C/c1coc2ccc(C)cc2c1=O
  A: /; B: 11%; C: 118%; D: 0%; E: 35µM*; F: -5%
COc1cc2cc(CN(CCCN3CCOCC3)C(=O)Nc3ccccc3F)c(=O)[nH]c2cc1OC
  A: 10%; B: -4%; C: /; D: -4%; E: 3%; F: 0%
O=C(Nc1ccc(F)cc1)N(CCCN1CCOCC1)Cc1cc2cc3c(cc2[nH]c1=O)OCCO3
  A: i; B: 2%; C: 25µM*; D: -1%; E: 0%; F: 3%
COc1ccccc1NC(=O)N(CCCN1CCOCC1)Cc1cc2cc3c(cc2[nH]c1=O)OCO3
  A: -29%; B: -18%; C: 20µM*; D: -6%; E: -4%; F: 0%
CC(C)OCCCNc1nc2c([S+](=O)([O-])c3ccncc3)nnn2c2ccccc12
  A: 4%[6.33 µM]; B: /; C: /; D: /; E: /; F: /
COCCCn1c(C)cnc1C1CCNC1 (stereo not drawn)
  A: 35%; B: /; C: /; D: /; E: /; F: /
N#CCCCN1CCN(C(=O)c2cc3ccccc3[nH]2)CC1
  A: 7%; B: /; C: /; D: /; E: /; F: /
O=C(N/N=C/c1c(Cl)cccc1Cl)c1ccc(-n2cnnn2)cc1
  A: -8%; B: 3%; C: -1%; D: -1%; E: 56µM*; F: -7%
Cc1cccn2c(=O)c3cc(C(=O)NCc4ccco4)c(=N)n(CCc4ccccc4)c3nc12
  A: -13%; B: ?; C: /; D: -4%; E: 2%; F: ?
CC(C)n1c(=N)c(C(=O)NC2CCCCC2)cc2c(=O)n3ccccc3nc21
  A: -21%; B: /; C: -13%; D: /; E: /; F: /
N=c1c(C(=O)NCc2ccco2)cc2c(=O)n3ccccc3nc2n1Cc1ccccc1
  A: 64%; B: ?; C: 18µM*; D: -5%; E: 10%; F: ?
N=c1c(C(=O)NC2CCCC2)cc2c(=O)n3ccccc3nc2n1C1CCCC1
  A: -3%; B: ?; C: 3.2µM*; D: 1%; E: -1%; F: ?

Four compounds drawn at random from those above:
Short keys: A = 12-LOX inh; B = Rango release inh; C = ClpP mod; D = PTAP TSG101 blk; E = TDP1 block; F = Rango-impB inh
COc1ccc2cc(C3CC(c4ccco4)=NN3S(C)(=O)=O)c(Cl)nc2c1 (stereo not drawn)
  A: 35µM*; B: ?; C: /; D: -4%; E: 8%; F: ?
CC(C)OCCCNc1nc2c([S+](=O)([O-])c3ccncc3)nnn2c2ccccc12
  A: 4%[6.33 µM]; B: /; C: /; D: /; E: /; F: /
CN1C2CCC1/C(=C\c1ccc(F)cc1)C(=O)/C2=C/c1ccc(F)cc1
  A: -13%; B: 2%; C: -3%; D: -1%; E: 0%; F: 4%
Cc1cccn2c(=O)c3cc(C(=O)NCc4ccco4)c(=N)n(CCc4ccccc4)c3nc12
  A: -13%; B: ?; C: /; D: -4%; E: 2%; F: ?

(more compounds)
Short keys: A = 12-LOX inh; B = Rango release inh; C = ClpP mod; D = PTAP TSG101 blk; E = TDP1 block; F = Rango-impB inh
N=c1c(C(=O)NCc2ccccc2)cc2c(=O)n3ccccc3nc2n1Cc1ccco1
  A: ?; B: ?; C: -17%; D: -5%; E: -2%; F: ?
COCCn1c(=N)c(C(=O)NCc2ccco2)cc2c(=O)n3ccccc3nc21
  A: 15%; B: ?; C: 28µM*; D: -2%; E: -1%; F: ?
Cc1cccn2c(=O)c3cc(C(=O)NCc4ccco4)c(=N)n(C(C)C)c3nc12
  A: -7%; B: ?; C: 14µM*; D: -4%; E: 4%; F: ?
COc1ccccc1NC(=O)COc1nc(C(C)C)c2c(c1C#N)CCC2
  A: 22%; B: /; C: /; D: /; E: /; F: /
CNC(=O)c1ccc(NC(=O)CC2(C(=O)O)CCCCC2)cc1
  A: -44%; B: /; C: /; D: /; E: /; F: /
COc1ccc(NC(=O)C2CCCN(c3cnn(Cc4ccccc4)c(=O)c3)C2)cc1OC (stereo not drawn)
  A: 41%; B: /; C: /; D: /; E: /; F: /
CC(C)N(Cc1ccccc1)C(=O)COC(=O)c1nn(-c2ccccc2)c(=O)c2ccccc12
  A: 1%; B: /; C: /; D: /; E: /; F: /
CCN(CC)CCn1c2ccccc2c2n[nH]c(=S)nc21
  A: 32µM*; B: -14%; C: /; D: 3%; E: 6%; F: 2%
CCN(CC)C(=O)COc1ccc(N(C)S(=O)(=O)c2ccc(NC(C)=O)cc2)cc1
  A: 9%; B: -12%; C: 0%; D: -9%; E: /; F: 0%
Cc1ccc(S(=O)(=O)N(C)c2ccc(OCC(=O)OCc3cccc(Br)c3)cc2)cc1
  A: 27%; B: -5%; C: -1%; D: -6%; E: /; F: 2%
Cc1ccc(S(=O)(=O)N(C)c2ccc(OCc3cccc(C)c3)cc2)cc1
  A: -13%; B: -16%; C: 22µM*; D: /; E: 0%; F: -1%
CC(=O)Nc1ccc(S(=O)(=O)N(C)c2ccc(OCCOc3cccc(C)c3)cc2)cc1
  A: ?; B: 1%; C: 2%; D: -5%; E: 13µM*; F: -1%
Cc1cc(C)cc(OCCC(=O)Nc2c(C)noc2C)c1
  A: 1%; B: /; C: /; D: /; E: /; F: /
CCOC(=O)C1(C)/C(=N/Nc2cccc(Cl)c2)C(=O)C(=O)N1c1ccccc1 (stereo not drawn)
  A: 22µM*; B: 9%; C: 2%; D: 3%; E: 11%; F: -3%
CCOc1ccc(-n2c(Cc3ccccc3)nnc2SCc2c(C)noc2C)cc1
  A: 0%; B: -1%; C: 2.8µM*; D: -4%; E: 2%; F: 4%
CC1(C)C=C(c2ccc(C=O)s2)CC(C)(C)N1C=O
  A: 15%; B: 1%; C: 22µM*; D: -3%; E: 5%; F: 2%
